In patent publication US4376119A, “Benzothiazine derivative” (priority 1981, dated 1983):

Tests used:
[1] = Incidence of gastric disorders (erosion) in rats; details: rat, in vivo, po
[2] = in vivo; details: mouse, po

CN1C(C(=O)Nc2cccc(F)n2)C(=O)c2ccccc2S1(=O)=O (centres unmarked) [N-(6-fluoro-2-pyridyl)-3,4-dihydro-2-methyl-4-oxo-2H-1,2-benzothiazine-3-carboxamide 1,1-dioxide]
selectivity ratio [1]: 39.6 | selectivity ratio [2]: > 667
